This passage reports IC50 results from patent publication EP0730590B1, “ISOXAZOLINE AND ISOXAZOLE FIBRINOGEN RECEPTOR ANTAGONISTS” (Dupont Pharmaceuticals Company, priority 1993, dated 1995).

Amino acid sequences for entries named in this document (tags omitted). Chains listed by the source or under a name are the forms on record and can include a tag or linker. Residues count along the entry.
UniProt P05106, 27-788 limits assumed: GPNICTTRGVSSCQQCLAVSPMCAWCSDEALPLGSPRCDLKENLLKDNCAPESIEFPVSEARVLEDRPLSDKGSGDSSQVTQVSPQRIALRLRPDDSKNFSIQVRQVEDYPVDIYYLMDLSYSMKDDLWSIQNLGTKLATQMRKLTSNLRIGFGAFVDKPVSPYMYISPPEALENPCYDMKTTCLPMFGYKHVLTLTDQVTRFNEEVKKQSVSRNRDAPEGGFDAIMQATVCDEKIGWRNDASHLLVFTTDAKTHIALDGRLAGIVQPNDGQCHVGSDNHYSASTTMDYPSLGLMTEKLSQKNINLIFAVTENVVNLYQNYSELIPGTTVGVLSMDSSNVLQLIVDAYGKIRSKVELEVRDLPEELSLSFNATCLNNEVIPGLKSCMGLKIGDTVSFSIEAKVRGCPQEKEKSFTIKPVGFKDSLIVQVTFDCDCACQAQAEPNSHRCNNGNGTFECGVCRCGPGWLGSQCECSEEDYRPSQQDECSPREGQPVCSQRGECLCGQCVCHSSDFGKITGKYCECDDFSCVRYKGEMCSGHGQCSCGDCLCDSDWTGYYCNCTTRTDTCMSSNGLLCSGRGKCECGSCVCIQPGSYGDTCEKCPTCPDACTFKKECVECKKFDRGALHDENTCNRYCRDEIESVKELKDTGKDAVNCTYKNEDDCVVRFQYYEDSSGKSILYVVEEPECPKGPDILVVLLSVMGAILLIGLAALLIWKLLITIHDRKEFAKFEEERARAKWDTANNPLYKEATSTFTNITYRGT
UniProt P08514, with tags, fused parts or gaps limits assumed: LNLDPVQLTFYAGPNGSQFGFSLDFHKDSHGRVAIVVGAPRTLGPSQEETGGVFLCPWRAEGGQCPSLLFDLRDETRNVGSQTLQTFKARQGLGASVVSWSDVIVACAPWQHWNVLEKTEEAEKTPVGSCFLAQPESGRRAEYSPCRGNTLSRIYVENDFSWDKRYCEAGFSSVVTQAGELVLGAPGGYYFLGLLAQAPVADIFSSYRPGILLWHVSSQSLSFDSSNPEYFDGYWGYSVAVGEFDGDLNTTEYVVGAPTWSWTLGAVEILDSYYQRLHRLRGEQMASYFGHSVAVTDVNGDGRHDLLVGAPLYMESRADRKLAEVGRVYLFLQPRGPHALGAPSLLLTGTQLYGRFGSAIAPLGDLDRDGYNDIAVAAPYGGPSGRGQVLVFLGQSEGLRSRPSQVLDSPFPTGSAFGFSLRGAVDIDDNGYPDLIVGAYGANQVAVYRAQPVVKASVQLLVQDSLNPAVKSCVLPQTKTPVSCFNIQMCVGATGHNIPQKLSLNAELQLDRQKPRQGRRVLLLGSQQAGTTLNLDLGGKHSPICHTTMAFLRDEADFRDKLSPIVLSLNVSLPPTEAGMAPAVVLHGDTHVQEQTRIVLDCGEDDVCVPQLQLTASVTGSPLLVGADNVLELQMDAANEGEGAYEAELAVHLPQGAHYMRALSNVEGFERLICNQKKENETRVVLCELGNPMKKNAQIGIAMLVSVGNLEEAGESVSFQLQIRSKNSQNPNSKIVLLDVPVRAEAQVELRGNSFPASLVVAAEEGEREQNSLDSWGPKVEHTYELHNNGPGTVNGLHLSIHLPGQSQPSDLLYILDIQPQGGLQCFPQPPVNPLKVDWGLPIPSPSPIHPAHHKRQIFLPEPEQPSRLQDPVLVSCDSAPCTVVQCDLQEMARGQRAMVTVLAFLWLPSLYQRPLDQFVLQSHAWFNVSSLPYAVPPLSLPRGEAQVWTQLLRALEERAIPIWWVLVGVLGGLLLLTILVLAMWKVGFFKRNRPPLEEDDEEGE

For experiment [1], the target named is agonist-induced platelet aggregation (Homo sapiens, UniProt P05106+P08514). The experiment is described as follows: Platelet Aggregation Assay in platelet-rich plasma (PRP). It counts as cell-based. The following applies: read-out: Platelet Aggregation Assay IC50 (without esterase).
In experiment [2] the target is human platelet rich plasma (Homo sapiens, UniProt P05106+P08514). Kind of experiment: Platelet Aggregation Assay, ester prodrugs preincubated with porcine liver esterase. The following applies: read-out: Platelet Aggregation Assay IC50 (with esterase), platelet rich plasma (PRP).

By IC50 is commonly meant the point on the concentration scale where inhibition reaches its midpoint. Consider `N=C(N)c1ccc(C2=NOC(CC(=O)NC(CCc3cccnc3)CC(=O)O)C2)cc1` (single isomer, unassigned), for which the 50% inhibitory concentration (IC50) in experiment [1] was less than 10 µM.

Consider `COC(=O)CC(CN(C)C)NC(=O)CC1CC(c2ccc(C(=N)N)cc2)=NO1` (single isomer, unassigned), for which the IC50 in experiment [2] was less than 10 µM.

In the case of `N=C(N)c1ccc(C2=NOC(CC(=O)NC(CCCc3ccccc3)CC(=O)O)C2)cc1` (single isomer, unassigned), in experiment [1], the IC50 is less than 10 µM.

`COC(=O)[C@H](CNC(=O)CC1CC(c2ccc(C(=N)N)cc2)=NO1)NS(=O)(=O)c1cccc(C)c1` (single isomer, unassigned): the 50% inhibitory concentration (IC50) in experiment [2] was less than 10 µM.
